Test results taken from patent US20170105952A1, “HISTONE ACETYL TRANSFERASE ACTIVATORS AND HISTONE DEACETYLASE INHIBITORS IN THE TREATMENT OF ALCOHOLISM” (THE BOARD OF TRUSTEES OF THE UNIVERSITY OF ILLINOIS, priority 2006, published 2017).

System: HDAC2 isoform
Test: HDAC2 protein levels in amygdaloid structures of ethanol-withdrawn rats (gold-immunolabeling)
Assay type: in vivo
Settings: SAHA 50 mg/kg intraperitoneally, increase seen in CeA and MeA, FIG. 4

With `O=C(CCCCCCC(=O)Nc1ccccc1)NO` [SAHA, suberoylanilide hydroxamic acid] the HDAC2 protein levels was “normalized HDAC2 levels”.
